According to ChEMBL document CHEMBL3297661, “1-Substituted-5-[(3,5-dinitrobenzyl)sulfanyl]-1H-tetrazoles and their isosteric analogs: A new class of selective antitubercular agents active against drug-susceptible and multidrug-resistant mycobacteria” (Eur J Med Chem, 2014):

Experiments:
[1] = Cytotoxicity against human HuH7 cells assessed as cell viability at 30 uM after 48 hrs by MTT assay; type: cell-based; details: huh-7, 48 h
[2] = test system: HeLa; test: Cytotoxicity against human HeLa cells assessed as reduction in cell viability after 48 hrs by MTT assay; type: cell-based
[3] = test system: HeLa; test: Cytotoxicity against human HeLa cells assessed as cell viability at 30 uM after 48 hrs by MTT assay; type: cell-based
[4] = Cytotoxicity against MDCK2 cells assessed as reduction in cell viability after 48 hrs by MTT assay; type: cell-based, Canis lupus familiaris; details: mdck-ii
[5] = Cytotoxicity against human HuH7 cells assessed as reduction in cell viability after 48 hrs by MTT assay; type: cell-based; details: huh-7
[6] = test system: HepG2; test: Cytotoxicity against human HepG2 cells assessed as reduction in cell viability after 48 hrs by MTT assay; type: cell-based
[7] = test system: HepG2; test: Cytotoxicity against human HepG2 cells assessed as cell viability at 30 uM after 48 hrs by MTT assay; type: cell-based; details: hepg2, 48 h
[8] = Cytotoxicity against MDCK2 cells assessed as cell viability at 30 uM after 48 hrs by MTT assay; type: cell-based, Canis lupus familiaris; details: dog, mdck-ii

For `O=[N+]([O-])c1ccc(-n2nnnc2SCc2cc([N+](=O)[O-])cc([N+](=O)[O-])c2)cc1`, the Activity [1] was 90%, the IC50 [2] was > 30 µM and the Activity [3] was 65%. For the same molecule, the IC50 [4] was > 30 µM, the IC50 [5] was > 30 µM and the IC50 [6] was > 30 µM. For the same molecule, the Activity [7] was 100% and the Activity [8] was 116%.
For `O=[N+]([O-])c1cccc(-n2nnnc2SCc2cc([N+](=O)[O-])cc([N+](=O)[O-])c2)c1`, the Activity [1] was 95%, the IC50 [2] was > 30 µM and the Activity [3] was 62%. The IC50 [4] was > 30 µM, the IC50 [5] was > 30 µM and the IC50 [6] was > 30 µM. The Activity [7] was 84% and the Activity [8] was 95%.
